Test results as given in ChEMBL document CHEMBL1151696 (Bioorg Med Chem, 2008).

Target: Glutamate NMDA receptor
Test: Antagonist activity at NMDA receptor in cerebellar granule neurons assessed as inhibition of NMDA-induced increase in intracellular calcium concentration by fluorometric assay
Type: functional, cell-based

CC12CC3CC(C)(C1)CC(N)(C3)C2 [MEMANTINE]
IC50: 1500 nM
